Assay results taken from ChEMBL document CHEMBL1136566, “Synthesis, opioid receptor binding, and functional activity of 5'-substituted 17-cyclopropylmethylpyrido[2',3':6,7]morphinans” (Bioorg Med Chem Lett, 2003).

Sequences of proteins named here, by UniProt entry; tags and fusion partners are left off.
UniProt P32300, whole entry: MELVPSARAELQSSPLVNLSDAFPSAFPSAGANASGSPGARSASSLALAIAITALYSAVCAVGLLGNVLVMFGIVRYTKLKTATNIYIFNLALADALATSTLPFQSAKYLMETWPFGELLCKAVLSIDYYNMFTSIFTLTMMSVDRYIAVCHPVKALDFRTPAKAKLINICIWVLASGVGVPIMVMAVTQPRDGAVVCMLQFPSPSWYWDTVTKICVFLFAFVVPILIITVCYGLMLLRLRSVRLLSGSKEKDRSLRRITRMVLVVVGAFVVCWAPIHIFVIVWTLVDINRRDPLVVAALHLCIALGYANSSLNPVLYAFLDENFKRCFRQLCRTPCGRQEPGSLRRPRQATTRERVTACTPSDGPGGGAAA
UniProt P97266, whole entry: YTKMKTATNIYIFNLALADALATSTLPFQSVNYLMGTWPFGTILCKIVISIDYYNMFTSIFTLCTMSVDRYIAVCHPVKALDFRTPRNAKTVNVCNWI

Key:
[1] = target: Delta-type opioid receptor (Mus musculus) (UniProt P32300); assay: Antagonist potency against delta opioid receptor was measured in mouse vas-deferens using DPDPE; format: functional
[2] = target: Mu-type opioid receptor (Cavia porcellus) (UniProt P97266); assay: Antagonist potency against mu opioid receptor was measured in guinea-pig ileal longitudinal muscle using PL-017; format: functional

## CCOC(=O)c1cnc2c(c1)C[C@@]1(O)[C@H]3Cc4ccc(O)c5c4[C@@]1(CCN3CC1CC1)[C@H]2O5
[1]
  Ke: 20 nM
[2]
  Ke: 87 nM
